± gives the expanded uncertainty stated by the source.
Legend:
[1] = xn = mol fraction of the nth substance listed; settings: 298.15 K, 101 kPa, Liquid
[2] = refractive index (Na D-line) (dimensionless); xn = mol fraction of the nth substance listed; settings: 298.15 K, 101 kPa, Liquid, Standard Abbe refractometry

CCCCOCCCC [dibutyl ether] + CC(C)CC(C)(C)C
mass density ([1]; x1 = 0.0497): 692.1 ± 0.39 kg/m3
mass density ([1]; x1 = 0.1): 696.09 ± 0.39 kg/m3
mass density ([1]; x1 = 0.1996): 703.9 ± 0.38 kg/m3
mass density ([1]; x1 = 0.3): 711.73 ± 0.37 kg/m3
mass density ([1]; x1 = 0.4001): 719.45 ± 0.37 kg/m3
mass density ([1]; x1 = 0.5005): 727.17 ± 0.36 kg/m3
mass density ([1]; x1 = 0.6003): 734.81 ± 0.35 kg/m3
mass density ([1]; x1 = 0.7): 742.31 ± 0.34 kg/m3
mass density ([1]; x1 = 0.8): 749.75 ± 0.34 kg/m3
mass density ([1]; x1 = 0.9): 757.11 ± 0.33 kg/m3
mass density ([1]; x1 = 0.95): 760.7 ± 0.32 kg/m3
refractive index ([2]; x1 = 0.0497): 1.38937 ± 0.00072
refractive index ([2]; x1 = 0.1): 1.38978 ± 0.00072
refractive index ([2]; x1 = 0.1996): 1.39059 ± 0.00072
refractive index ([2]; x1 = 0.3): 1.39139 ± 0.00072
refractive index ([2]; x1 = 0.4001): 1.39217 ± 0.00072
refractive index ([2]; x1 = 0.5005): 1.39296 ± 0.00072
refractive index ([2]; x1 = 0.6003): 1.39376 ± 0.00072
refractive index ([2]; x1 = 0.7): 1.39449 ± 0.00072
refractive index ([2]; x1 = 0.8): 1.39521 ± 0.00072
refractive index ([2]; x1 = 0.9): 1.39589 ± 0.00072
refractive index ([2]; x1 = 0.95): 1.39621 ± 0.00072

From the NIST ThermoML archive (doi:10.1021/je900496t)
